Measurements taken from ChEMBL document CHEMBL3886656, “1,3-dioxanomorphides and 1,3-dioxanocodides” (2016).

Target: Kappa-type opioid receptor (Homo sapiens, UniProt P41145)

For `CC(C)(C)[C@@]1(C)OCO[C@]23CC[C@@]4(C[C@@H]21)[C@H]1Cc2ccc(OCc5ccccc5)c5c2[C@@]4(CCN1CC1CC1)[C@H]3O5`, the EC50 was greater than 20 µM.
